Assay results reported in the NIST ThermoML archive (doi:10.1016/j.jct.2017.02.008).
Numbers after ± are expanded uncertainties.

Key:
[1] = Molar enthalpy of transition or fusion; details: Crystal; DSC
[2] = Crystal; DTA

SMILES: Cc1ccc(N)c([N+](=O)[O-])c1 [4-methyl-2-nitroaniline]
- Molar enthalpy of transition or fusion [1]: 21.1 ± 0.92 kJ/mol
- Normal melting temperature [2]: 115.41 ± 1.1 °C
